The values that follow are results of earlier work, collected in patent publication US9213031B2, “Use of Cbl as biomarker for identifying subject suitable for treatment with anti-c-Met antibody” (SAMSUNG ELECTRONICS CO., LTD., priority 2012, dated 2015).

This data set relates to lung cancer patients LXFE1422, LXFA526, LXFA1647. The settings on record: cited from earlier work.

Like-named read-outs stand apart in the source and are kept apart here.

Consider “Cetuximab: an EGFR-targeting anticancer therapeutic”, for which the “resistance to Cetuximab” value reads like this: (LXFA526 patient) “cannot be treated with Cetuximab due to their resistance”; (LXFA1647 patient) “cannot be treated with Cetuximab due to their resistance”; (LXFE1422 patient) “not resistant”.
